{"source": "patent US20250186503A1", "about": "“METHODS AND COMBINATIONS FOR TREATMENT AND T CELL MODULATION” (Juno Therapeutics, Inc., priority 2018, published 2025)", "key": {"[1]": {"tested_on": "anti-CD19 CAR T cells", "experiment": "Proliferation of anti-CD19 CAR T cells under sub-optimal anti-CD3 stimulation", "type": "cell-based, human", "conditions": "5 μM, 72 hours", "from_the_text": "The CAR contained an anti-CD19 scFv, an Ig-derived spacer, a human CD28-derived transmembrane domain, a human 4-1BB-derived intracellular signaling domain and a human CD3 zeta-derived signaling domain. The nucleic acid construct encoding the CAR also included a truncated EGFR (tEGFR) sequence for use as a transduction marker, separated from the CAR sequence by a self-cleaving T2A sequence."}, "[2]": {"tested_on": "anti-BCMA CAR T cells", "experiment": "Proliferation and expansion of anti-BCMA CAR T cells stimulated with BCMA-conjugated beads", "type": "cell-based, human", "conditions": "5 μM, 50 μg/mL beads, day 4 but not day 7", "protocol": "Cryofrozen anti-BCMA CAR T cells, produced substantially as described in Example 1 and formulated at a 1:1 ratio of CD4+ and CD8+ T cells, were thawed.\nTo further assess proliferation, the cells containing anti-BCMA CAR-expressing T cells were labeled with the proliferation marker dye CELLTRACE VIOLET (CTV; ThermoFisher Scientific, Waltham MA) in accordance with the manufacturer's protocol prior to incubation with the BCMA-conjugated beads. Proliferation was assessed by dye dilution using flow cytometry on cells that were stimulated with beads from the 50 μg/mL BCMA-conjugated bead composition.\nFour days and seven days after addition of BCMA-conjugated beads, the incubated cells were stained with CD4 or CD8 and with an anti-EGFR antibody to determine the percentage of cells positive for EGFRt as a surrogate for CAR+ T cells. At the time of plating, 26% of the CD4+ cells expressed anti-BCMA CAR and 39% of the CD8+ cells expressed anti-BCMA CAR as determined by staining with BCMA-Fc."}, "[3]": {"tested_on": "RPMI-8226", "conditions": "dose-responsive and delayed effect"}, "[4]": {"tested_on": "anti-BCMA CAR T cells", "experiment": "Cytokine production of anti-BCMA CAR T cells at low, medium and high BCMA bead stimulation", "type": "cell-based, human", "conditions": "medium stimulation (50 μg/mL BCMA beads), 24 hours"}}, "data": [{"smiles": "Nc1cccc2c1CN(C1CCC(=O)NC1=O)C2=O", "note": "(stereo not shown) [lenalidomide, 3-(4-amino-1-oxo-1,3-dihydro-2H-isoindol-2-yl)piperidine-2,6-dione]", "values": [{"measurement": "proliferation of the CAR+ T cells (CTV dilution)", "setting": "[1]", "value": "enhanced proliferation"}, {"measurement": "proliferation by CTV dilution", "setting": "[2]", "value": "slight delay in proliferation"}, {"measurement": "time in culture after which effect on cytolytic activity emerged", "setting": "[3]", "value": "> 50", "unit": "h"}, {"measurement": "increase in IL-2 and TNF-α concentrations compared with vehicle control", "setting": "[4]", "value": 200, "unit": "%"}]}]}
